This is an account of results in PubChem BioAssay AID598 (SRMLSC, 2007).

This is a selection; strong and weak results do not stand in their true shares. Activity calls are given as the source filed them.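 Rule for the calls: active = viability at or below 40%; inactive = viability above 40%.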

This test can be described thus: proliferation blockers of H69AR lung cancer cells, primary screen, cell-based, human, 86K library (AID 598).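 Note: multidrug resistant small cell line overexpressing MRP-1 efflux transporter; 100% = mean luminescence of untreated control wells.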 The note with it: H69AR lung tumor viability, ATP luminescence, 72 h; at 10 µM; hits give low values.
With `Fc1ccccc1NC1CCN(Cc2ccccc2)CC1`, the viability was inactive: 94%.

`CCOc1ncccc1C(=O)NCC1(N2CCOCC2)CCCCC1`: the viability is inactive: 97.2%. The value for `CCC(CO)(C(=O)OC1CN2CCC1CC2)c1ccccc1` (centres undefined) was inactive: 99.6%; that for `N/C(=N\O)c1c(N)no[n+]1[O-]` was inactive: 104%; that for `c1ccc(CN2CCC(Nc3ccccc3)CC2)cc1` was inactive: 96.3%. For `N#CC1(Nc2ccccc2)CCN(CCc2ccccc2)CC1`, the viability was inactive: 96.5%. Regarding `O=C(NCC1(N2CCOCC2)CCCCC1)c1cc(=O)[nH]c2ccccc12`, the viability was inactive: 95.7%. With `O=C(NCC1(N2CCOCC2)CCCCC1)c1cc2ccccc2o1` the figure was inactive: 85.6%; with `O=C(OC1CN2CCC1CC2)C1c2ccccc2Oc2ccccc21` (centres undefined), inactive: 79.7%.
